Measurements reported in publication PMC6844067.

Each substance was assayed on OC[C@H]1O[C@@](CO)(O[C@H]2O[C@H](CO)[C@@H](O)[C@H](O)[C@H]2O)[C@@H](O)[C@@H]1O (assay: purified protein). Conditions: 100 mM acetate buffer, pH 4.5, 55 °C, 20 min, 1–20 mg/mL sucrose, printed μM conflicts with this substrate range (about 3–58 mM), unit probably mM.

Row | Substance | Km [µM] | Vmax [µM/min/mg] | kcat [s⁻¹] | kcat/Km [M⁻¹ s⁻¹]
1 | rKcINU1 (recombinant exo-inulinase KcINU1) (Kluyveromyces marxianus; N385Q) | 33.04 ± 4.11 | 3270 | 3300 | 1e+08
2 | rKcINU1 (recombinant exo-inulinase KcINU1) (Kluyveromyces marxianus; N393Q) | 32.73 ± 4.99 | 1720 | 1730 | 5.3e+07
3 | rKcINU1 (recombinant exo-inulinase KcINU1) (Kluyveromyces marxianus; N422Q) | 24.89 ± 1.07 | 2340 | 2360 | 9.48e+07
4 | rKcINU1 (recombinant exo-inulinase KcINU1) (Kluyveromyces marxianus; N490Q) | 76.29 ± 16.21 | 167 | 169 | 2.21e+06
5 | rKcINU1 (recombinant exo-inulinase KcINU1) (Kluyveromyces marxianus; N549Q) | 37.97 ± 3.4 | 3020 | 3050 | 8.04e+07
